Reference: publication PMC3121796 (PLoS ONE, 2011)

By UniProt entry, the sequences of proteins in these tests, tags left out.
UniProt Q15858, whole entry: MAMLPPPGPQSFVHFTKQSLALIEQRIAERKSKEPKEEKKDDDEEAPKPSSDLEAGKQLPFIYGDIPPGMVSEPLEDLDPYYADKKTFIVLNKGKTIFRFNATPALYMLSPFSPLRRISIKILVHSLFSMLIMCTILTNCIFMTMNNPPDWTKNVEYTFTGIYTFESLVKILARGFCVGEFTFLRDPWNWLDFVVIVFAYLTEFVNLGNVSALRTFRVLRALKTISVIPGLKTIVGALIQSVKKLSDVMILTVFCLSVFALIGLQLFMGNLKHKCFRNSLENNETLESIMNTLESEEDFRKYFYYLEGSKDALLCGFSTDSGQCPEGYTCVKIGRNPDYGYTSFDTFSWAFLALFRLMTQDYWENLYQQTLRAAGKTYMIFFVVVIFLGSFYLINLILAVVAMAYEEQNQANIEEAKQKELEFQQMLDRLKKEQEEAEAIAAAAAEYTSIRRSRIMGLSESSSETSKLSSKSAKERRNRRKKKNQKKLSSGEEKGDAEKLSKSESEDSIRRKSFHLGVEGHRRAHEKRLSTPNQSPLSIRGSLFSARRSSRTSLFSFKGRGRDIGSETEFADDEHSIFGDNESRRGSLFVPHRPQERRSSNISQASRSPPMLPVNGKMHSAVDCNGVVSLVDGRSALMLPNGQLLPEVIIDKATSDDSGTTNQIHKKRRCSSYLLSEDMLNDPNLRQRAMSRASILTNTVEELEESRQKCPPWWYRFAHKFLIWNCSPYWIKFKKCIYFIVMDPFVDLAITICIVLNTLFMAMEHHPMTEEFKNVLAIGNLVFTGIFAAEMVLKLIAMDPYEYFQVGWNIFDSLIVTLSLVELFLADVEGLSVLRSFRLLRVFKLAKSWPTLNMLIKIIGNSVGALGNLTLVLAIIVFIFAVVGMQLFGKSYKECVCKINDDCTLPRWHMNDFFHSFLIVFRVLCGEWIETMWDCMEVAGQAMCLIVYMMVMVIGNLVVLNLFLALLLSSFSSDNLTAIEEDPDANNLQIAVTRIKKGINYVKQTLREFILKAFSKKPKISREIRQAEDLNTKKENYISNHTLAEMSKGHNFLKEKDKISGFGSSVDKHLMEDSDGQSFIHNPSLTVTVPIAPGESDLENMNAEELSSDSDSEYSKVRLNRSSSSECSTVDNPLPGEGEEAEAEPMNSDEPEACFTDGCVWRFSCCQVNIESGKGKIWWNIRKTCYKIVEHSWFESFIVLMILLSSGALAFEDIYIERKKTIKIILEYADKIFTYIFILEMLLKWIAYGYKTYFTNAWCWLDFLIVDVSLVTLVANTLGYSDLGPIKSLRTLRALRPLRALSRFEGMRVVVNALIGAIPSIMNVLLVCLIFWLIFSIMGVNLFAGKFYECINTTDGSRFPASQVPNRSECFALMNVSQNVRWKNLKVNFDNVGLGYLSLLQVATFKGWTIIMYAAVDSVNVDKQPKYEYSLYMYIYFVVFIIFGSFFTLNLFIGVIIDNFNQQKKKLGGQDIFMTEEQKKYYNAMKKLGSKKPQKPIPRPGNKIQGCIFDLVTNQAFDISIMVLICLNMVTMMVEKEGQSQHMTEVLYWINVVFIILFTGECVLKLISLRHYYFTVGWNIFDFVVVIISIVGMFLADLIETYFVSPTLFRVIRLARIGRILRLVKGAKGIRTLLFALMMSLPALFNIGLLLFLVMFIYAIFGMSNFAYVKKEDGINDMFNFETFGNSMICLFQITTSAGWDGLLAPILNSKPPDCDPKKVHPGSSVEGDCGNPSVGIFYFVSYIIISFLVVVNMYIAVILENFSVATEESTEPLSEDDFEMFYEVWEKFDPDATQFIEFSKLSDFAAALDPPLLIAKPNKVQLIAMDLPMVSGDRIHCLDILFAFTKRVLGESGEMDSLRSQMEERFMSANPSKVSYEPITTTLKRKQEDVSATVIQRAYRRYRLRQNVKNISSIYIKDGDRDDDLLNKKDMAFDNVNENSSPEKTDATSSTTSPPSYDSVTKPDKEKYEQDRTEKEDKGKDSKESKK

Target: T1, human Nav1.7 (hNav1.7) (Homo sapiens, UniProt Q15858)
T1 construct: expressed in transfected cells; host or cells: HEK293
Experiment: whole-cell patch-clamp assay, inhibition of hNav1.7 currents
Assay type: cell-based
Conditions: HEK293 cells transiently transfected with human Nav1.7, room temperature, currents elicited by depolarization to −10 mV, dose-response curve, data points mean ± S.E., each from three to five experimental cells

| Compound | IC50 [µM] |
| --- | --- |
| CC(C)C[C@H](NC(=O)[C@H](CCCCN)NC(=O)[C@H](Cc1c[nH]c2ccccc12)NC(=O)[C@H](CCCCN)NC(=O)[C@@H]1CSSC[C@@H]2NC(=O)[C@H](CCC(=O)O)NC(=O)[C@H](CC(N)=O)NC(=O)[C@H](CCCCN)NC(=O)CNC(=O)[C@@H]3CCCN3C(=O)[C@H]([C@@H](C)O)NC(=O)[C@@H]3CSSC[C@H](NC(=O)[C@H](C(C)C)NC(=O)[C@H](CCCNC(=N)N)NC(=O)[C@H](CC(N)=O)NC(=O)[C@@H]4CCCN4C(=O)[C@H](CSSC[C@H](NC(=O)[C@H](C)N)C(=O)N[C@@H](CCCCN)C(=O)NCC(=O)N[C@@H](C(C)C)C(=O)N[C@@H](Cc4ccccc4)C(=O)N[C@@H](CC(=O)O)C(=O)N[C@@H](C)C(=O)N3)NC2=O)C(=O)N[C@@H](CO)C(=O)N[C@@H](CC(=O)O)C(=O)N[C@@H](CCCCN)C(=O)N[C@@H](Cc2cnc[nH]2)C(=O)N[C@@H](CCCCN)C(=O)N[C@@H](Cc2c[nH]c3ccccc23)C(=O)N1)C(=O)O [HWTX-I] | 0.63 |
| CC(C)C[C@H](NC(=O)[C@H](CCCCN)NC(=O)[C@H](Cc1c[nH]c2ccccc12)NC(=O)[C@H](CCCCN)NC(=O)[C@@H]1CSSC[C@@H]2NC(=O)[C@H](CCC(=O)O)NC(=O)[C@H](CC(N)=O)NC(=O)[C@H](CCCCN)NC(=O)CNC(=O)[C@@H]3CCCN3C(=O)[C@H]([C@@H](C)O)NC(=O)[C@@H]3CSSC[C@H](NC(=O)[C@H](C(C)C)NC(=O)[C@H](CCCNC(=N)N)NC(=O)[C@H](CC(N)=O)NC(=O)[C@@H]4CCCN4C(=O)[C@H](CSSC[C@H](NC(=O)[C@H](C)N)C(=O)N[C@@H](CCCCN)C(=O)NCC(=O)N[C@@H](C(C)C)C(=O)N[C@@H](Cc4ccccc4)C(=O)N[C@@H](CC(=O)O)C(=O)N[C@@H](C)C(=O)N3)NC2=O)C(=O)N[C@@H](CO)C(=O)N[C@@H](CC(=O)O)C(=O)N[C@@H](CCCCN)C(=O)N[C@@H](Cc2cnc[nH]2)C(=O)N[C@@H](CCCCN)C(=O)N[C@@H](Cc2c[nH]c3ccccc23)C(=O)N1)C(=O)O [rHWTX-I] | 0.64 |
